Laboratory results: patent US20220187281A1, “METHODS AND SYSTEMS FOR EVALUATION OF CELL SAMPLES” (priority 2019, published 2022)

Tested on: MMTV-PyMT mouse breast tumor

| Compound | sensitivity by viability assay readings | sensitivity by viability assay readings (day 12 compared to day 0, CPP 20 μM, DOX 100 nM, TAXOL 1 nM) |
| --- | --- | --- |
| O=P1(N(CCCl)CCCl)NCCCO1 (centres unmarked) [CPP, cyclophosphamide] | insensitive | – |
| COc1cccc2c1C(=O)c1c(O)c3c(c(O)c1C2=O)C[C@@](O)(C(=O)CO)C[C@@H]3O[C@H]1C[C@H](N)[C@H](O)[C@H](C)O1 [Doxorubicin] | – | sensitive |

Like-named read-outs stand apart in the source and are kept apart here.
